Laboratory results taken from PMC6695839, “Interspecies Variation in NCMN-O-Demethylation in Liver Microsomes from Various Species” (Molecules, 2019).

Protein sequences, listed by entry. Tags and fused reporters are not part of them. Residues count along the entry.
UniProt P05177, 2-516: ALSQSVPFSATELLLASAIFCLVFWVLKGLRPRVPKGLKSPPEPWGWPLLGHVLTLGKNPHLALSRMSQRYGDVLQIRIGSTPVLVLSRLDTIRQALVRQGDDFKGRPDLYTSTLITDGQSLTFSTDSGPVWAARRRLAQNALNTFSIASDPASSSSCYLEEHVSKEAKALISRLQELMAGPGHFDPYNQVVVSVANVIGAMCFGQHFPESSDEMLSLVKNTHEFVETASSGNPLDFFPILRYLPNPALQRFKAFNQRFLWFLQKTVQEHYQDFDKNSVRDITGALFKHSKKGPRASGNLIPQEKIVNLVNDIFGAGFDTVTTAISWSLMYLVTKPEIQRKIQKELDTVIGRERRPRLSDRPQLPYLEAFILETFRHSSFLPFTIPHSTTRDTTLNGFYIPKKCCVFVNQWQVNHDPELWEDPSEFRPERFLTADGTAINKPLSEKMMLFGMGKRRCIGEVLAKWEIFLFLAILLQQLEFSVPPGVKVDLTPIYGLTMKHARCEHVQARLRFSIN

Target: CYP1A in human liver microsomes (HLM) (Homo sapiens, UniProt P05177)
Experiment: Inhibition of NCMN-O-demethylation by CYP inhibitors in human liver microsomes
Conditions: 10 µM NCMN, 100 µM furafylline, 10 µM sulfaphenazole, 200 µM troleandomycin, 500 µM 1-ABT

Cc1nc2c([nH]1)c(=O)n(C)c(=O)n2Cc1ccco1 [furafylline]
Inhibition of the formation of NCHN: near completely
